According to patent US6376490B1, “Quinoxalinediones” (Pfizer Inc, priority 1997, dated 2002):

Target: glycine site of the NMDA receptor (Rattus norvegicus, UniProt P35439)
Experiment: Displacement of [3H]-L-689,560 from rat brain membranes (NMDA glycine site binding)
Conditions: read-out: IC50 (nM), binding affinity for the glycine site of the NMDA receptor, [3H]-L-689,560 method, tris-acetate buffer pH 7.4, 90 minutes, tested form: 0.25 1,4-dioxane solvate

IC50: 3 nM
Structure (SMILES): Cn1nnnc1-c1c(Cl)c(Cl)cc2[nH]c(=O)c(=O)[nH]c12
